Measured values from ChEMBL document CHEMBL1909046, “DrugMatrix in vitro pharmacology data”.

Amino acid sequences for entries named in this document (tags omitted). A change or cut given only in a name is not applied to a line headed by its entry. Residues count along the entry.
UniProt P22303, 32-614 limits assumed: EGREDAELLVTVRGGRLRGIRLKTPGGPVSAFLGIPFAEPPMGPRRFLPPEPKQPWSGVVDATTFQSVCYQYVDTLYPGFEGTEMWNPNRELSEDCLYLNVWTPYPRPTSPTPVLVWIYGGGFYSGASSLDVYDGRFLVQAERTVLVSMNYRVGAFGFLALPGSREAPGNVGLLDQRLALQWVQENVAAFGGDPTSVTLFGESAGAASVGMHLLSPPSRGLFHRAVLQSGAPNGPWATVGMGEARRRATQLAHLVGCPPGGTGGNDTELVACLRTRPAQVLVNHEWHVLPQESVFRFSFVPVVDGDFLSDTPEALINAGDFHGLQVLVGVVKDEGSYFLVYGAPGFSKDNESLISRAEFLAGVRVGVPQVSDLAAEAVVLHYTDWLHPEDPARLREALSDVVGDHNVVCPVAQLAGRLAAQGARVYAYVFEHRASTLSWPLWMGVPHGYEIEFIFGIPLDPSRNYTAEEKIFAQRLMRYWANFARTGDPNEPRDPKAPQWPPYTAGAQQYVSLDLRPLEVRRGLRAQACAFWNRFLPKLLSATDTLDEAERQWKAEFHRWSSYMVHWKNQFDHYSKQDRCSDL
UniProt P37288, whole entry, looked up: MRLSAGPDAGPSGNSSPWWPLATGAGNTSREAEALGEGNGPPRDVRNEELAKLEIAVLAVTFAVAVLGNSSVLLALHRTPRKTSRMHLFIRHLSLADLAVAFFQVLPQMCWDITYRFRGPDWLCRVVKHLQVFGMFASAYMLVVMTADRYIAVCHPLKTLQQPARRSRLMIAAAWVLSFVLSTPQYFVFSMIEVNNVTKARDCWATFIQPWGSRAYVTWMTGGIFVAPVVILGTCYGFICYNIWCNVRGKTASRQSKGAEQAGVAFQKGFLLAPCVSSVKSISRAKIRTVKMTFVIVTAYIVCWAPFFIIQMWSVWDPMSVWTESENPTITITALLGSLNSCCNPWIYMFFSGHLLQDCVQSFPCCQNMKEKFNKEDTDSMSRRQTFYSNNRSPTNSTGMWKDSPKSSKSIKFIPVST
UniProt P08311, 21-244 limits assumed: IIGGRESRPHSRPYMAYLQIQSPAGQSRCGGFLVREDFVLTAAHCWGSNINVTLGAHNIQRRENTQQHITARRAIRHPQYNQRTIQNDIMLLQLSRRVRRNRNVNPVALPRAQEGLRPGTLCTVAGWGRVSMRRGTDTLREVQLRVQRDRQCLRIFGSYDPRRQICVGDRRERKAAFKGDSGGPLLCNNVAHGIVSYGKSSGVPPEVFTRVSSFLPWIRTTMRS
UniProt P08246, 30-267 limits assumed: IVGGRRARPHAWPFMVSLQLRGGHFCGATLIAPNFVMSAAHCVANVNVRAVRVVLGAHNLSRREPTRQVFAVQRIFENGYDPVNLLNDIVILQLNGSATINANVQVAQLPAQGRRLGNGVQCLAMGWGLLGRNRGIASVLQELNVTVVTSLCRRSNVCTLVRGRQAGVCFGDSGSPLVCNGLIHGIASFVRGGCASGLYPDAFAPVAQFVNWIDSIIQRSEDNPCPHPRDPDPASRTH
UniProt P12822, 34-1310 limits assumed: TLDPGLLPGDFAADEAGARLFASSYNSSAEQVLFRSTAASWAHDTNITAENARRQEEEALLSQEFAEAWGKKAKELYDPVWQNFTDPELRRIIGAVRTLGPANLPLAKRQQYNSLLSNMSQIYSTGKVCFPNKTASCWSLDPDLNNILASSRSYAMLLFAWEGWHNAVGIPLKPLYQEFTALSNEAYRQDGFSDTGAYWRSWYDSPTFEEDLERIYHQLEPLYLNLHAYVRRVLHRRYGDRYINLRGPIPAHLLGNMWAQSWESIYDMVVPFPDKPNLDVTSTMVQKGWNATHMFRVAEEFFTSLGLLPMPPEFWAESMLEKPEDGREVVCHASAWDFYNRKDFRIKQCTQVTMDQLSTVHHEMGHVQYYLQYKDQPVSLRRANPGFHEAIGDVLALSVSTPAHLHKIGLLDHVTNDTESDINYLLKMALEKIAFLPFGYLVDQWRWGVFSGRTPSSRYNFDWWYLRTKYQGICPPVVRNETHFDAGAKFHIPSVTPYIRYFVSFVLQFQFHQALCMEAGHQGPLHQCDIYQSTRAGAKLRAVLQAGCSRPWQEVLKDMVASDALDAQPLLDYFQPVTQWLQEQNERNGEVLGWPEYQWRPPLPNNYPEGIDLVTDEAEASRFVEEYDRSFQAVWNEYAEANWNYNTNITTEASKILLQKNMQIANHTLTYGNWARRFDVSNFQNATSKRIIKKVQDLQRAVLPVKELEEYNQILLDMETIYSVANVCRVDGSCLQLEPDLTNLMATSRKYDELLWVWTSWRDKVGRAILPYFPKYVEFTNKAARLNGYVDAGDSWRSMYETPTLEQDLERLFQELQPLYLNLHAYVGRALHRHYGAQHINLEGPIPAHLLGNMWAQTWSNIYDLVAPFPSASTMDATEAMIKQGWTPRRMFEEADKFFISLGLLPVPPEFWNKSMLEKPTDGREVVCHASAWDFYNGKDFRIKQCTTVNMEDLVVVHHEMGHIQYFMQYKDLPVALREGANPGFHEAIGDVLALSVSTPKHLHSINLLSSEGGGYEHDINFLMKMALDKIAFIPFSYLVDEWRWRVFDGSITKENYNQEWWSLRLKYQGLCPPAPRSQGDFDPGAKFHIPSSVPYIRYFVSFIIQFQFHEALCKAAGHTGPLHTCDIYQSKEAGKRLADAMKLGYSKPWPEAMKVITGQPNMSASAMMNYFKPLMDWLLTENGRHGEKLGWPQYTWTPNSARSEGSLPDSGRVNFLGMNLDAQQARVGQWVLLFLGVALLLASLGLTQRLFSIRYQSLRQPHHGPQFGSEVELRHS
UniProt P13945: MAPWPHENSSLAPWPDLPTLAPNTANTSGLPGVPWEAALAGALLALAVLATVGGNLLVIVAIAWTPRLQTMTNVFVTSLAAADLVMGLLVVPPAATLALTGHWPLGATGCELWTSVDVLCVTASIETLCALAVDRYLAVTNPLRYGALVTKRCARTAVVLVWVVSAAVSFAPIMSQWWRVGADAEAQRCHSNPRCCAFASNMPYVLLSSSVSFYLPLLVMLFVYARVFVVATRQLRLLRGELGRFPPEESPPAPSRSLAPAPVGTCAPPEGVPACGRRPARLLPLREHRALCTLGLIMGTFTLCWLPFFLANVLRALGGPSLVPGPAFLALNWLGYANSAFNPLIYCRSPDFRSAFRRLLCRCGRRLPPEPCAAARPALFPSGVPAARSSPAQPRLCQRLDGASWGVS
UniProt P29477: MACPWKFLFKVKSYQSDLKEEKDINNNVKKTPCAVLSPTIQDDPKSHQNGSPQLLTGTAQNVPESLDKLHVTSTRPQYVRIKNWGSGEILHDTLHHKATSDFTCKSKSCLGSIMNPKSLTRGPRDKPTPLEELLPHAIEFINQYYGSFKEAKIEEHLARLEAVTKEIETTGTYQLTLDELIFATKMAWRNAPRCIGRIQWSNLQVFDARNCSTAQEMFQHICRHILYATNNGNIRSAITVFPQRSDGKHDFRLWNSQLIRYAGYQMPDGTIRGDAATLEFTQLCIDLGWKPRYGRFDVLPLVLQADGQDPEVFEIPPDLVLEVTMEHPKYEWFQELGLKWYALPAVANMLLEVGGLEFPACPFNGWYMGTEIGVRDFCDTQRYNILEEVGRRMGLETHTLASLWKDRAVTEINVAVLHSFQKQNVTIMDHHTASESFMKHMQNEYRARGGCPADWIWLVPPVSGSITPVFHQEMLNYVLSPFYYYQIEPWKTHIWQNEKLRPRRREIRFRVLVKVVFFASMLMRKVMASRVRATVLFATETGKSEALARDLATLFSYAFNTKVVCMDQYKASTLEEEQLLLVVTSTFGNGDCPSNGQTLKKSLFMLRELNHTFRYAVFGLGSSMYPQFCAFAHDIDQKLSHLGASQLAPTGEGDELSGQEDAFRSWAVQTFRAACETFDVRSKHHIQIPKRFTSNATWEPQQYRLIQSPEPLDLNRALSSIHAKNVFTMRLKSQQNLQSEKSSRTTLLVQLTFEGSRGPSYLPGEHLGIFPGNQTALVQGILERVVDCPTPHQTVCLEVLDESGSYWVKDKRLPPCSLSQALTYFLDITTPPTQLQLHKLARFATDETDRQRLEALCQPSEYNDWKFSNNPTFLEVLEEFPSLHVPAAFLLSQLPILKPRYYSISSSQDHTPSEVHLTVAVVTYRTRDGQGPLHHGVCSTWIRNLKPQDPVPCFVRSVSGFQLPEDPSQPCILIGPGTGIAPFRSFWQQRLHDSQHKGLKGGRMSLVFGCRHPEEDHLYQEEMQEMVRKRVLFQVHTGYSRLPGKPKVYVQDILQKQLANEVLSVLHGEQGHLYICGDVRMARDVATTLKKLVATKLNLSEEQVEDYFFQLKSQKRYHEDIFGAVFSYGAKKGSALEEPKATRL
UniProt P29476, whole entry, looked up: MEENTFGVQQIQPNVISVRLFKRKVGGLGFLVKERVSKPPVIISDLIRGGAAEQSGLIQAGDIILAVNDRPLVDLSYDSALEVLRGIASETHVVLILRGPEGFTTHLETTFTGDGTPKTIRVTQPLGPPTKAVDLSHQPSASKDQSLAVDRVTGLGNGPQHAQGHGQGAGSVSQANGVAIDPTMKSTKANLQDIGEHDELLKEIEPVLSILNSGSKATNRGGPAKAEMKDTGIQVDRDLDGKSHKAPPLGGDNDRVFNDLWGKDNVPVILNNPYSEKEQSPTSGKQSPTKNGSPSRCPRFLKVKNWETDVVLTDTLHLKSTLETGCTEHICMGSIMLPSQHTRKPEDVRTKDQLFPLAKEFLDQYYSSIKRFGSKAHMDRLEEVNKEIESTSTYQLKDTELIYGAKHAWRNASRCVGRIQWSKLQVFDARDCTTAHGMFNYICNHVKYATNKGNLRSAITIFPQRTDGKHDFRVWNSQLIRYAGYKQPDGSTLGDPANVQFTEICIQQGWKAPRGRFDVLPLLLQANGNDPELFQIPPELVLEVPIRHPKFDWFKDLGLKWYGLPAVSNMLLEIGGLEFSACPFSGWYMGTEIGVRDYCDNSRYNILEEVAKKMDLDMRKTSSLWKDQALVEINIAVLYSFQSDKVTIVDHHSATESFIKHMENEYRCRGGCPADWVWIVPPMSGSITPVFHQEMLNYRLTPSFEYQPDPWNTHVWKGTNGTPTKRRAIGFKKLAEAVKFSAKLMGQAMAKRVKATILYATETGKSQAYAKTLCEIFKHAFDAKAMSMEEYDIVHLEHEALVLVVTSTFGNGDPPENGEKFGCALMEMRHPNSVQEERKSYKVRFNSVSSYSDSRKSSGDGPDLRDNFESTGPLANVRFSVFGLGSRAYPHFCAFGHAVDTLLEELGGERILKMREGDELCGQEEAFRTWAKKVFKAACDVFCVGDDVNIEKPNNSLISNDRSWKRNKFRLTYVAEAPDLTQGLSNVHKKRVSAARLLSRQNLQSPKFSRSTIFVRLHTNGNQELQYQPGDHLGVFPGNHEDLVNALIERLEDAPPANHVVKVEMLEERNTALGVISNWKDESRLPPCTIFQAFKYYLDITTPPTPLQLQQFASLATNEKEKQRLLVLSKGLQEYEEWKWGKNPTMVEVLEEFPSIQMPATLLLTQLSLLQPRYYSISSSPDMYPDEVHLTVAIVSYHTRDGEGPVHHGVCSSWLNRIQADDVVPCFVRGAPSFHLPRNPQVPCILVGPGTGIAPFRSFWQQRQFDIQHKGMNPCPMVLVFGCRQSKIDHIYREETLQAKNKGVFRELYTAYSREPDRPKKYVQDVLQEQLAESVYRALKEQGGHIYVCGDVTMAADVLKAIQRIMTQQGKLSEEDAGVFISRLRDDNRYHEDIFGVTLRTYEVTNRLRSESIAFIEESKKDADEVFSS
UniProt P43140: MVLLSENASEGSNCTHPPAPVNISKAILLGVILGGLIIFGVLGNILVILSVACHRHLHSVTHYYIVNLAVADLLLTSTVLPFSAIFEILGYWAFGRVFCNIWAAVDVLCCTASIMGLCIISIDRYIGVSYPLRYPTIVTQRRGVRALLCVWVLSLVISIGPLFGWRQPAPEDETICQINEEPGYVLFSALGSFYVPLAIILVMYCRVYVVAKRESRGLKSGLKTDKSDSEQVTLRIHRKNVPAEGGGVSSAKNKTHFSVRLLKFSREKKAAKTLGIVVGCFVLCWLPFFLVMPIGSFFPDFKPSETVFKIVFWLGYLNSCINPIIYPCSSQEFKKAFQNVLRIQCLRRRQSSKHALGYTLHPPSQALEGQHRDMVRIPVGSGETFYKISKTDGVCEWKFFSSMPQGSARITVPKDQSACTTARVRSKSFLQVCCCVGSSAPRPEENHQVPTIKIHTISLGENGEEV
UniProt P41145: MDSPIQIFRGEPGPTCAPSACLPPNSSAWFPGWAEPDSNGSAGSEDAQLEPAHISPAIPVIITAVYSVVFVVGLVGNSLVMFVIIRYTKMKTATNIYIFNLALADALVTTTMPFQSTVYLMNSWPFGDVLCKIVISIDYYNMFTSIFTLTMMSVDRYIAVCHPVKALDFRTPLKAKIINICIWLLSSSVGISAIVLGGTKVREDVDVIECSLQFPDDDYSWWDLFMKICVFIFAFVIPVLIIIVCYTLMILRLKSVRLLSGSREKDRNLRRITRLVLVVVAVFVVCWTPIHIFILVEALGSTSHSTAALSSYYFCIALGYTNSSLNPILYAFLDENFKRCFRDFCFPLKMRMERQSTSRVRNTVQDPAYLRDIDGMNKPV

Experiments:
Acetylcholinesterase = Acetylcholinesterase (Homo sapiens, UniProt P22303); assay: DRUGMATRIX: Acetylcholinesterase enzyme inhibition (substrate: acetylthiocholine); settings: hek293
Vasopressin V1a receptor = Vasopressin V1a receptor (Homo sapiens, UniProt P37288); settings: hek293; note: in other assays of this panel Not Active means under 50% inhibition at 10 µM
[1] = target: 5-hydroxytryptamine receptor 2C (Homo sapiens, UniProt P28335); assay: DRUGMATRIX: Serotonin (5-Hydroxytryptamine) 5-HT2C radioligand binding (ligand: [3H] Mesulergine); settings: cho-k1
[2] = target: 5-hydroxytryptamine receptor 6 (Homo sapiens, UniProt P50406); assay: DRUGMATRIX: Serotonin (5-Hydroxytryptamine) 5-HT6 radioligand binding (ligand: [3H] Lysergic acid diethylamide); settings: hela; note: in other assays of this panel Not Active means under 50% inhibition at 10 µM
Cathepsin G = Cathepsin G (Homo sapiens, UniProt P08311); assay: DRUGMATRIX: Protease, Cathepsin G enzyme inhibition (substrate: Suc-Ala-Ala-Pro-Phe-AMC); settings: neutrophil;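 note: inhibition of Cathepsin G enzyme activity, tested on an AMC-conjugated peptide substrate; in other assays of this panel Not Active means under 50% inhibition at 10 µM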
[3] = target: Beta-1 adrenergic receptor (Homo sapiens, UniProt P08588); settings: cho-k1
[4] = target: Mitogen-activated protein kinase 1 (Homo sapiens, UniProt P28482); assay: DRUGMATRIX: Protein Serine/Threonine Kinase, ERK2 enzyme inhibition (substrate: Myelin Basic Protein)
[5] = target: Alpha-1B adrenergic receptor (Rattus norvegicus, UniProt P15823); settings: strain Wistar, Liver
Neutrophil elastase = Neutrophil elastase (Homo sapiens, UniProt P08246); assay: DRUGMATRIX: Peptidase, ELA2 (Neutrophil Elastase 2) enzyme inhibition (substrate: N-MeOSuc-Ala-Ala-Pro-Val-pNA);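 note: inhibition of neutrophil elastase enzyme activity, measured with a p-nitroanilide-linked peptide substrate; in other assays of this panel Not Active means under 50% inhibition at 10 µM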
[6] = target: Angiotensin-converting enzyme (Oryctolagus cuniculus, UniProt P12822); assay: DRUGMATRIX: Peptidase, Angiotensin Converting Enzyme enzyme inhibition (substrate: FAPGG); settings: Lung
[7] = target: Amine oxidase [flavin-containing] A (Homo sapiens, UniProt P21397); assay: DRUGMATRIX: Monoamine Oxidase MAO-A enzyme inhibition (substrate: Kynuramine); settings: bti-tn-5b1-4
Carbonic anhydrase 2 = Carbonic anhydrase 2 (Homo sapiens, UniProt P00918); assay: DRUGMATRIX: Carbonic Anhydrase II enzyme inhibition (substrate: 4-Nitrophenyl acetate (4-NPA)); settings: erythrocyte
Interstitial collagenase = Interstitial collagenase (Homo sapiens, UniProt P03956); assay: DRUGMATRIX: Peptidase, Matrix Metalloprotease-1 (MMP-1) enzyme inhibition (substrate: Mca-Pro-Leu-Gly-Leu-Dpa-Ala-Arg-NH2); settings: Rheumatoid synovial fibroblasts; note: in other assays of this panel Not Active means under 50% inhibition at 10 µM
[8] = target: Platelet-activating factor receptor (Homo sapiens, UniProt P25105); assay: DRUGMATRIX: Platelet Activating Factor (PAF) radioligand binding (ligand: [3H] PAF); note: in other assays of this panel Not Active means under 50% inhibition at 10 µM
[9] = target: Vascular endothelial growth factor receptor 1 (Homo sapiens, UniProt P17948); settings: huvec; note: in other assays of this panel Not Active means under 50% inhibition at 10 µM
[10] = target: 5-hydroxytryptamine receptor 1B (Rattus norvegicus, UniProt P28564); settings: strain Wistar, Cerebral cortex; note: in other assays of this panel Not Active means under 50% inhibition at 10 µM
[11] = target: 5-hydroxytryptamine receptor 1A (Rattus norvegicus, UniProt P19327); assay: DRUGMATRIX: Serotonin (5-Hydroxytryptamine) 5-HT1A radioligand binding (ligand: [3H] 8-OH-DPAT); settings: cho-k1; note: in other assays of this panel Not Active means under 50% inhibition at 10 µM
[12] = target: Tyrosine-protein kinase Fyn (Homo sapiens, UniProt P06241); assay: DRUGMATRIX: Protein Tyrosine Kinase, Fyn enzyme inhibition (substrate: Poly(Glu:Tyr)); settings: insect cells
[13] = target: 5-hydroxytryptamine receptor 2B (Homo sapiens, UniProt P41595); assay: DRUGMATRIX: Serotonin (5-Hydroxytryptamine) 5-HT2B radioligand binding (ligand: [3H] Lysergic acid diethylamide); settings: cho-k1; note: in other assays of this panel Not Active means under 50% inhibition at 10 µM
D(4) dopamine receptor = D(4) dopamine receptor (Homo sapiens, UniProt P21917); assay: DRUGMATRIX: Dopamine D4.2 radioligand binding (ligand: [3H] Spiperone); settings: cho-k1
[14] = target: Beta-3 adrenergic receptor (Homo sapiens, UniProt P13945); settings: hek293
[15] = target: Matrix metalloproteinase-9 (Homo sapiens, UniProt P14780); assay: DRUGMATRIX: Protease, Matrix Metalloprotease-9 (MMP-9) enzyme inhibition (substrate: Mca-Pro-Leu-Gly-Leu-Dpa-Ala-Arg-NH2)
[16] = target: Nitric oxide synthase, inducible (Mus musculus, UniProt P29477); assay: DRUGMATRIX: Nitric Oxide Synthase, Inducible (iNOS) enzyme inhibition (substrate: L-Arginine)
D(1A) dopamine receptor = D(1A) dopamine receptor (Homo sapiens, UniProt P21728); assay: DRUGMATRIX: Dopamine D1 radioligand binding (ligand: [3H] SCH-23390); settings: cho
Nitric oxide synthase 1 = Nitric oxide synthase 1 (Rattus norvegicus, UniProt P29476); assay: DRUGMATRIX: Nitric Oxide Synthase, Neuronal (nNOS) radioligand binding (ligand: [3H]L-Arginine); settings: Cerebellum; note: in other assays of this panel Not Active means under 50% inhibition at 10 µM
[17] = target: Vasoactive intestinal polypeptide receptor 1 (Homo sapiens, UniProt P32241); settings: ht-29; note: in other assays of this panel Not Active means under 50% inhibition at 10 µM
[18] = target: Receptor-type tyrosine-protein phosphatase C (Homo sapiens, UniProt P08575); assay: DRUGMATRIX: Protein Tyrosine Phosphatase, PTPRC (CD45) enzyme inhibition (substrate: DiFMUP)
[19] = target: Alpha-1A adrenergic receptor (Rattus norvegicus, UniProt P43140); settings: strain Wistar, Submaxillary gland
[20] = target: Sigma non-opioid intracellular receptor 1 (Homo sapiens, UniProt Q99720); settings: jurkat
[21] = target: Kappa-type opioid receptor (Homo sapiens, UniProt P41145); assay: DRUGMATRIX: Opiate kappa (OP2, KOP) radioligand binding (ligand: [3H] Diprenorphine); settings: hek293

CN(C(=O)Cc1ccc(Cl)c(Cl)c1)C1CCC2(CCCO2)CC1N1CCCC1 (stereo not given)
IC50 (Acetylcholinesterase): Not Active | Ki (Acetylcholinesterase): Not Active | IC50 (Vasopressin V1a receptor): Not Active | Ki (Vasopressin V1a receptor): Not Active | IC50 [1]: Not Active | Ki [1]: Not Active | IC50 [2]: Not Active | Ki [2]: Not Active | IC50 (Cathepsin G): Not Active | Ki (Cathepsin G): Not Active | IC50 [3]: Not Active | Ki [3]: Not Active | IC50 [4]: Not Active | Ki [4]: Not Active | IC50 [5]: Not Active | Ki [5]: Not Active | IC50 (Neutrophil elastase): Not Active | Ki (Neutrophil elastase): Not Active | IC50 [6]: Not Active | Ki [6]: Not Active | IC50 [7]: Not Active | Ki [7]: Not Active | IC50 (Carbonic anhydrase 2): Not Active | Ki (Carbonic anhydrase 2): Not Active | IC50 (Interstitial collagenase): Not Active | Ki (Interstitial collagenase): Not Active | IC50 [8]: Not Active | Ki [8]: Not Active | IC50 [9]: Not Active | Ki [9]: Not Active | IC50 [10]: Not Active | Ki [10]: Not Active | IC50 [11]: Not Active | Ki [11]: Not Active | IC50 [12]: Not Active | Ki [12]: Not Active | IC50 [13]: Not Active | Ki [13]: Not Active | IC50 (D(4) dopamine receptor): Not Active | Ki (D(4) dopamine receptor): Not Active | IC50 [14]: Not Active | Ki [14]: Not Active | IC50 [15]: Not Active | Ki [15]: Not Active | IC50 [16]: Not Active | Ki [16]: Not Active | IC50 (D(1A) dopamine receptor): Not Active | Ki (D(1A) dopamine receptor): Not Active | IC50 (Nitric oxide synthase 1): Not Active | Ki (Nitric oxide synthase 1): Not Active | IC50 [17]: Not Active | Ki [17]: Not Active | IC50 [18]: Not Active | Ki [18]: Not Active | IC50 [19]: Not Active | Ki [19]: Not Active | IC50 [20]: Not Active | Ki [20]: Not Active | IC50 [21]: 8.3 nM | Ki [21]: 3.32 nM
